# This is a selection; strong and weak results do not stand in their true shares. Activity calls are given as the source filed them.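 Rule for the calls: active = inhibition above the mean inhibition of all tested compounds plus 3 SD, set per campaign (cut at about 52% in these data); inactive = the rest.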
# Chains of the proteins cited; added tags and fusions are not shown.
# UniProt Q15596, whole entry: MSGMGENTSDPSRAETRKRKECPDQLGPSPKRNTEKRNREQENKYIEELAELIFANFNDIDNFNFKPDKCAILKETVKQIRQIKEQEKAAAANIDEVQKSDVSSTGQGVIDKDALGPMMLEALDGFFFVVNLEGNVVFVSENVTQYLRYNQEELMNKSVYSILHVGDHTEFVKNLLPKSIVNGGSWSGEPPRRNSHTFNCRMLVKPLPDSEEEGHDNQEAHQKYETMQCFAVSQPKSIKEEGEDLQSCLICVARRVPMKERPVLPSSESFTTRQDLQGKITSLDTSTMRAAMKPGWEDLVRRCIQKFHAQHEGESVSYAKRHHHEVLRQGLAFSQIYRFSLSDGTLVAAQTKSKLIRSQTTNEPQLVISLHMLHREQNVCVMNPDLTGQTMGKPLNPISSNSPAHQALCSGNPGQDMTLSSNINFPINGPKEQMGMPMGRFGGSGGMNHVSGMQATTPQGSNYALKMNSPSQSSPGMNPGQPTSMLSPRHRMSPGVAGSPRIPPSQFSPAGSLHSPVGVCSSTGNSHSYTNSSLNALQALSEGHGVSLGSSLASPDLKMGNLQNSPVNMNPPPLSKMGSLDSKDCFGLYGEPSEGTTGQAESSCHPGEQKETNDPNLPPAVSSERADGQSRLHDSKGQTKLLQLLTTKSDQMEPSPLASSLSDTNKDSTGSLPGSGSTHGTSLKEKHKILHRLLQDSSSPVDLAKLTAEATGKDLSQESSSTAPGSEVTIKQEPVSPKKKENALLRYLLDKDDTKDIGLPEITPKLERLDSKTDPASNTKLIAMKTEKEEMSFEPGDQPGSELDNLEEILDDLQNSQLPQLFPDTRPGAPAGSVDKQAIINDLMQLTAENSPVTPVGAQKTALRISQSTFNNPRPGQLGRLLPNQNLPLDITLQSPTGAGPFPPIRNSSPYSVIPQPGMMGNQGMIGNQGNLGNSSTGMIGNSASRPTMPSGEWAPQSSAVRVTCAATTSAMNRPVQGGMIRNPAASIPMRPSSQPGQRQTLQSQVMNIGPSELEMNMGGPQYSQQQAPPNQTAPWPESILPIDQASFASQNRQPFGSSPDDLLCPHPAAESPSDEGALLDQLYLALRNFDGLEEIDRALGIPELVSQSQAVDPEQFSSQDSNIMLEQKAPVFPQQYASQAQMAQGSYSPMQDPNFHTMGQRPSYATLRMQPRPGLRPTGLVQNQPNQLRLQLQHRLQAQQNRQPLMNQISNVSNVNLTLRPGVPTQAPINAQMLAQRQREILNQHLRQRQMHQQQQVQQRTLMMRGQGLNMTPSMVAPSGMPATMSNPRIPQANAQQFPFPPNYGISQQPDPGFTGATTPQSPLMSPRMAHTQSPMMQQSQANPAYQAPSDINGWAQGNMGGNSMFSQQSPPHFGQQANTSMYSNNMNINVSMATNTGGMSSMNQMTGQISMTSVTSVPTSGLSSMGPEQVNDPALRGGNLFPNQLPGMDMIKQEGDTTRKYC
# Target: Nuclear receptor coactivator 2 (Homo sapiens) (UniProt Q15596)
# Assay: inhibition of GAL4-SRC2 driven luciferase reporter, primary screen, SRC2 inhibitor project, cell-based, luminescence (AID 651957);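 note: 0% = DMSO treated cells and 100% = cells given Gossypol at 36 µM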
# Details: HEK293 GAL4-SRC2 luciferase reporter, at 9 µM, hits give high values
row,SMILES,inhibition
1,Cc1cc(N(CCCl)CCCl)ccc1C=O,inactive: 11.8%
2,O=c1[nH]c2ccccc2n1C1CCN(C(c2ccccc2)c2nnnn2C2CCCC2)CC1 (configuration not stated),inactive: -22.9%
3,CCCN1CCC(Nc2cc(OC)cc(OC)c2)CC1,inactive: 10.2%
4,c1ccc(CN2CCC(Nc3ccccc3)CC2)cc1,inactive: 25.8%
5,C/C(N)=N\P(=O)(Oc1ccccc1)Oc1ccccc1,inactive: -17.4%
6,CN(C)C1(CNC(=O)c2cccc(C#N)c2)CCCCC1,inactive: -24.9%
7,CC(C)(C)n1nnnc1C(c1cccc2ccccc12)N1CCC(n2c(=O)[nH]c3ccccc32)CC1 (configuration not stated),inactive: 8.16%
8,CC(C)(C)OC(=O)N1CCC(N(C(=O)c2ccccc2)c2ccc(Cl)cc2)CC1,inactive: 6.44%
9,N#Cc1ccc(C(=O)NCC2(N3CCCCC3)CCCCC2)cc1,inactive: 0.78%
10,N/C(=N\O)c1c(N)no[n+]1[O-],inactive: -9.29%
11,COc1cccc(C(c2nnnn2C(C)(C)C)N2CCC(n3c(=O)[nH]c4ccccc43)CC2)c1OC (configuration not stated),inactive: 10.7%
12,CCOC(=O)N1CCC(Nc2ccc(C)cc2)CC1,inactive: -14.3%
13,CCCCn1nnnc1C(c1cccc(OC)c1OC)N1CCC(n2c(=O)[nH]c3ccccc32)CC1 (configuration not stated),inactive: -14.8%
14,O=c1[nH]c2ccccc2n1C1CCN(C(c2cccs2)c2nnnn2C2CCCC2)CC1 (configuration not stated),inactive: -5.07%
15,O=C(OC1CN2CCC1CC2)C1c2ccccc2C=Cc2ccccc21 (configuration not stated),inactive: -35.5%
16,O=C(NCC1(N2CCOCC2)CCCCC1)c1cc(Br)ccc1Cl,inactive: 6.32%
17,COc1cc(C(=O)NCC2(N3CCOCC3)CCCCC2)cc(OC)c1C,inactive: 14.6%
18,CCCCn1nnnc1C(c1ccccc1)N1CCC(n2c(=O)[nH]c3ccccc32)CC1 (configuration not stated),inactive: -4%
19,O=c1[nH]c2ccccc2n1C1CCN(C(c2ccnc3ccccc23)c2nnnn2C2CCCC2)CC1 (configuration not stated),inactive: 5.78%
20,COc1ccc(C(=O)NCC2(N3CCOCC3)CCCCC2)cc1OC,inactive: 9.38%
21,NC(=O)C1(Nc2ccccc2)CCN(Cc2ccccc2)CC1,inactive: -38.6%

row,SMILES,inhibition
1,O=c1[nH]c2ccccc2n1C1CCN(C(c2cccs2)c2nnnn2C2CCCCC2)CC1 (configuration not stated),inactive: 11.6%
2,CCC(CO)(C(=O)OC1CN2CCC1CC2)c1ccccc1 (configuration not stated),inactive: -19%
3,COc1cccc(C(=O)N(c2cc(C)cc(C)c2)C2CCN(C(=O)OC(C)(C)C)CC2)c1,inactive: -4.58%
4,COc1cccc(C(c2nnnn2C2CCCC2)N2CCC(n3c(=O)[nH]c4ccccc43)CC2)c1OC (configuration not stated),inactive: 9.56%
5,COc1cc(OC)cc(C(=O)NCC2(N3CCOCC3)CCCCC2)c1,inactive: 12%
6,CN1CCC(Nc2ccc(Cl)cc2)CC1,inactive: -17%
7,CN1CCC(Nc2ccc(F)c(Cl)c2)CC1,inactive: -1.37%
8,CCOc1ncccc1C(=O)NCC1(N2CCOCC2)CCCCC1,inactive: 2.26%
9,CCCOc1ccc(C(=O)NCC2(N(C)C)CCCCC2)cc1,inactive: -12.2%
10,O=c1[nH]c2ccccc2n1C1CCN(C(c2cc3ccccc3o2)c2nnnn2C2CCCC2)CC1 (configuration not stated),inactive: -44.5%
11,NN(c1ccccc1)C1CCN(CCc2ccccc2)CC1,inactive: 4.28%
12,O=C(O)C1(Nc2ccccc2)CCN(Cc2ccccc2)CC1,inactive: 3.3%
13,CC(C)(C)OC(=O)N1CCC(Nc2ccccc2)CC1,inactive: 32%
14,CC(C)(C)n1nnnc1C(c1ccnc2ccccc12)N1CCC(n2c(=O)[nH]c3ccccc32)CC1 (configuration not stated),inactive: -11.6%
15,CCN1CCC(Nc2cccc(F)c2)CC1,inactive: 6.94%
16,COc1ccc(C(c2nnnn2C2CCCCC2)N2CCC(n3c(=O)[nH]c4ccccc43)CC2)cc1 (configuration not stated),inactive: -17.5%
17,Cc1ccccc1NC1(C#N)CCN(Cc2ccccc2)CC1,inactive: -17.6%
18,Cn1c(=O)[nH]cc(N(CCCl)CCCl)c1=O,inactive: -29.2%
19,CN(C)c1ccc(C(=O)NCC2(N3CCCCC3)CCCCC2)cc1,inactive: -15.4%
20,O=C(NCC1(N2CCCCC2)CCCCC1)c1ccco1,inactive: -11.4%
21,O=c1[nH]c2ccccc2n1C1CCN(C(c2ccnc3ccccc23)c2nnnn2C2CCCCC2)CC1 (configuration not stated),inactive: -4.22%

row,SMILES,inhibition
1,COc1cc(OC)cc(C(=O)NCC2(N3CCCCC3)CCCCC2)c1,inactive: -35.9%
2,CCC(c1nnnn1C1CCCCC1)N1CCC(n2c(=O)[nH]c3ccccc32)CC1 (configuration not stated),inactive: 4.82%
3,CC(=O)N(c1ccccc1)C1CCNCC1,inactive: -14.1%
4,COc1cccc(C(c2nnnn2C2CCCCC2)N2CCC(n3c(=O)[nH]c4ccccc43)CC2)c1OC (configuration not stated),inactive: 21.3%
5,Cc1ccc(NC2(C#N)CCN(Cc3ccccc3)CC2)cc1,inactive: -0.53%
6,Fc1ccccc1NC1CCN(Cc2ccccc2)CC1,inactive: 11.8%
7,Cc1ccc(C(=O)NCC2(N3CCCCC3)CCCCC2)o1,inactive: -22.8%
8,O=c1[nH]c2ccccc2n1C1CCN(C(c2ccccc2)c2nnnn2C2CCCCC2)CC1 (configuration not stated),inactive: -9.72%
9,O=c1[nH]c2ccccc2n1C1CCN(C(c2cccc3ccccc23)c2nnnn2C2CCCC2)CC1 (configuration not stated),inactive: -22.8%
10,COc1cc(C(=O)NCC2(N(C)C)CCCCC2)ccc1OC(F)F,inactive: 7.32%
11,CCOC(=O)N1CCC(Nc2cccc(C)c2)CC1,inactive: 11.3%
12,CCOc1ccc(C)cc1CN(CCCl)CCCl,inactive: -12.2%
13,O=C1CCN(Cc2ccccc2)CC1,inactive: -9.98%
14,CC(C)(C)n1nnnc1C(c1ccccc1)N1CCC(n2c(=O)[nH]c3ccccc32)CC1 (configuration not stated),inactive: 13.6%
15,CCOC(=O)N1CCC(Nc2ccc(F)cc2)CC1,inactive: -4.21%
16,COc1ccc(NC2CCN(CCc3ccccc3)CC2)c(OC)c1,inactive: -28.3%
17,O=C(NCC1(N2CCCCC2)CCCCC1)c1ccc(F)cc1,inactive: -2.78%
18,CCCCOc1ccc(C(=O)NCC2(N3CCOCC3)CCCCC2)cc1,inactive: -20.1%
19,O=P1(N(CCCl)CCCl)SCCCS1,inactive: -1.84%
20,CCCCn1nnnc1C(c1cc2ccccc2o1)N1CCC(n2c(=O)[nH]c3ccccc32)CC1 (configuration not stated),inactive: -2.78%
